# Reference: PubChem BioAssay AID602244 (Sanford-Burnham Center for Chemical Genomics, 2012)
# Protein sequences, listed by entry. Tags and fused reporters are not part of them.
# UniProt O00574, whole entry: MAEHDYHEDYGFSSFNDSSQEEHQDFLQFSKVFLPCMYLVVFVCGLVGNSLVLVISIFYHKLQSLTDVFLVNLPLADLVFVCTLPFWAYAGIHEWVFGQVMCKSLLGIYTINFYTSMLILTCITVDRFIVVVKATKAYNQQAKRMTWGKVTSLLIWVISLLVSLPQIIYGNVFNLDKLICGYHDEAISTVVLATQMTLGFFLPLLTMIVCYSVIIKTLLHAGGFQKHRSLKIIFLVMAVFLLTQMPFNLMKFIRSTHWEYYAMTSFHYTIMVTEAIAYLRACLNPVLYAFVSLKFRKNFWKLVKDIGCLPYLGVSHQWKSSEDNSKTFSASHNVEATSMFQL
# Only a part is listed here, and it is no random draw. The source made the active and inactive calls. Cut-off read from the data, not from the text of the source: active = inhibition above about 34% (passing the limit was not always enough); inactive = the rest.
# Target: C-X-C chemokine receptor type 6 (Homo sapiens) (UniProt O00574)
# Assay: CXCR6 receptor inhibitors, primary screen, cell-based, beta-arrestin, luminescence, CHO-K1 PathHunter, 1536-well (AID 602244);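 note: antagonist mode with CXCL16 agonist at 10 nM final; 0% = 10 nM CXCL16 with DMSO and 100% = unstimulated wells without agonist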
# Settings: at 20 µM, hits give high values
row,SMILES,inhibition
1,CCC(=O)N(c1ccccc1)C1(COC)CCN(CCn2nnn(CC)c2=O)CC1,inactive: -2.7%
2,CCC(=O)N(c1ccccc1)C1(COC)CCN(CCc2cccs2)CC1,inactive: 1.6%
